Patent EP4840864A1, “CRYSTAL FORM OF PYRIDOPYRIMIDINE DERIVATIVE, PREPARATION METHOD THEREFOR AND USE THEREOF” (dated 2026)

How the values were obtained:
[1] = Solid stability test, crystal form checked by XRPD
Description: According to the "Guidelines for the Stability Testing of Drug Substances and Pharmaceutical Preparations" (General Chapter 9001, Part IV, Chinese Pharmacopoeia 2020 Edition), the solid stability of crystal form A of the compound of formula (I) was evaluated. The crystal form A was respectively placed under conditions of high temperature (60°C, open), high humidity (25°C / 92.5% relative humidity, open), and illumination (open, illuminated under conditions of 5000 +/- 500 lux (visible light) and 90 w/cm^2 (ultraviolet) for 10 days, where the total illuminance received was not less than 1.2×10^6 Lux-hr, and the near-ultraviolet energy was not less than 200 w·hr/m^2; samples of a light-shielding control group were placed at the same time and wrapped in aluminum foil). Each sample was placed in an amount of 1.5 g. After the completion of sample placement, all stability samples were subjected to XRPD testing, and the results are shown in Table 9. Table 9. Solid stability test results of crystal form A of the compound of formula (I)

[2] = Hygroscopicity study by dynamic vapor sorption (DVS); conditions: 25°C, 80% RH
Description: • Instrument model: SMS DVS Advantage dynamic vapor sorption analyzer • Testing conditions: A sample (10 to 30 mg) is placed into a DVS sample pan for testing. • Detailed DVS parameters are as follows: • Temperature: 25°C • Equilibrium: dm/dt = 0.005%/min (minimum: 10 min, maximum: 180 min) • Gas: N2 • RH (%) testing steps: 10% (90%-0%-90%); 5% (95%-90%, 90%-95%) • RH (%) testing step range: 0% - 95% - 0%
The classification for evaluating hygroscopicity is as follows: Table 2. Classification for evaluating hygroscopicity
10 to 30 mg of the crystal form A of the compound of formula (I) was placed into a DVS sample pan for testing.

[3] = system: GP2D cells; experiment: Proliferative inhibitory effect on GP2D cell line (CellTiter-Glo 3D); conditions: read-out: GP2D IC50; GP2D human colon cancer cells with KRAS G12D mutation, 5 days
Description: Cell culture medium for experiment: Fetal bovine serum at a final concentration of 10% and a penicillin/streptomycin solution at a final concentration of 1% were added into a DMEM cell culture medium, and the mixture was stored at 4°C for future use.
GP2D cells that had reached 80% cell confluence were digested with trypsin, centrifuged, resuspended, and counted. A cell suspension was prepared using the culture medium. The cell suspension was added into a 96-well plate at an amount of 180 µL/well (1000 cells/well). The plate was placed in a cell incubator containing 5% CO2 and cultured at 37°C overnight.
The test compound was diluted with a DMSO solution to 200 µM, and then further diluted with the complete culture medium to 10 µM. […]
After the compound was incubated for the above-mentioned time, the 96-well cell culture plate was taken out. […] The plate was read on an Envision plate reader using the *US LUM-US LUM 96 (cps) program.
The measured signal values of each group were normalized by subtracting the signal value of a cell-free control well. Data were calculated according to the following formula for the cell viability after the compound treatment: % Inhibition rate = (1 - (RFU compound - AVER(RFU negative control)) / (AVER(RFU positive control) - AVER(RFU negative control))) x 100%. […]

C#Cc1c(F)ccc2cc(N)cc(-c3ncc4c(N5CC6CCC(C5)N6)nc(OC[C@]56CC(=C)CN5C[C@@H]5C[C@@H]56)nc4c3F)c12
Crystal form ([1]; High humidity (25°C, 92.5% relative humidity, open), 30 days, XRPD): Crystal form A | Crystal form ([1]; High temperature (60°C, open), 30 days, XRPD): Crystal form A | Crystal form ([1]; Light-shielding control group, placed simultaneously with visible + ultraviolet light, wrapped in aluminum foil, XRPD): Crystal form A | Crystal form ([1]; Visible light + ultraviolet light (ICH conditions, open), visible no less than 1.2 × 10^6 Lux·hr, ultraviolet no less than 200 w·hr/m^2, XRPD): Crystal form A | Change of crystal form under all the stability conditions ([1]; high temperature, high humidity, and illumination): did not undergo a significant change | Hygroscopicity classification [2]: slightly hygroscopic | ΔW (hygroscopic weight gain) ([2]; DVS): 1.606% | IC50 [3]: 1.25 nM
